Key:
Assay in all cases: HLA class I competition binding assay using soluble HLA
[1] = target: HLA A3301 (Homo sapiens, UniProt P04439, A270S/D185E/E176V/E277Q/E87N/F33T/G231S/H175R/I121M/I218V/I322F/K168Q/K210R/L300P/L318F/M331R/P217A/Q86R/Q94H/R138Q/T323A/T345S/T97I/V358M/Y195H)
[2] = target: HLA A3101 (Homo sapiens, UniProt P04439, A270S/D185E/E176V/E277Q/F33T/G231S/G80R/H175R/I121M/I218V/I322F/K168Q/L300P/L318F/M331R/P217A/Q94H/R138Q/T323A/T345S/T97I/V358M)
[3] = target: T1, HLA A0301 (Homo sapiens, UniProt P04439)
T1 construct: endogenous in cells

[4] = target: HLA A6801 (Homo sapiens, UniProt P04439, A269V/D185E/E176V/E277Q/E87N/F33Y/G231S/I121M/I166T/I218V/L180W/L300P/L318F/N151K/P208A/P217A/Q86R/R169H/T345S)

CSCC[C@H](NC(=O)[C@H](CC(C)C)NC(=O)[C@H](CCSC)NC(=O)[C@@H](NC(=O)[C@@H](N)CCSC)C(C)C)C(=O)N[C@@H](CC(C)C)C(=O)N[C@H](C(=O)N[C@@H](CCCNC(=N)N)C(=O)N[C@@H](Cc1ccccc1)C(=O)N[C@@H](CCCCN)C(=O)O)C(C)C [compound 55]
IC50 [1]: 20 nM
IC50 [2]: 53 nM
IC50 [3]: 10 nM
IC50 [4]: 10 nM

— US8969542B2, “HPV polyepitope constructs and uses thereof” (priority 2007, dated 2015)
